This is a sample that favours compounds with a hit; in the whole collection about 2.3% have one here.
ASAP1 GAP inh – inhibitors of human ASAP1 ArfGAP activity; AID 624377; Q9ULH1; 0.19% of 360,000 active; ASAP1-stimulated ARF1 GTP hydrolysis, GDP FP detection; inhibition, % at 16.5 µM; in the data active means inhibition above about 25%;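 further: 0% = vehicle with enzyme and substrate and 100% = no enzyme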
MC4R barr agon – activates human MC4R beta-arrestin recruitment | activation, % at 8.9 µM | 0.98% of 360,000 active | U2OS MC4R beta-arrestin complementation, luminescence; percent of melanotan II response, DMSO zero | AID 540308 | P32245;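 active means activation above a per-plate cutoff, the mean activation of sample wells on that plate plus 3 SD, cut at about 8% in these data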
CendR NRP1 mod – modulators of CendR peptide binding to human neuropilin-1; O14786; FAM-RPARPAR peptide binding to NRP-1, fluorescence polarization; inhibition, % at 25 µM; 0.85% of 360,000 active;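 active means inhibition or corrected inhibition above about 18%, plus a signal ratio from 0.5 to 1.5, limit read from the data, passing the limit was not always enough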
Yeast UUG start – yeast start codon fidelity modulation | S. cerevisiae UUG-firefly luciferase reporter, luminescence/redox ratio | activity score, % at 18.7 µM | 0.13% of 350,000 active | AID 602363;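 active means replicate mean at a twofold rise or more, about +100% in these data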;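 further: firefly luciferase made from a UUG start codon reports start codon fidelity; reporter light over untreated wells divided by growth signal over untreated wells; some hits fall short of that in this replicate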
MC4R antag cAMP – antagonists of human melanocortin 4 receptor (MC4R). 0.48% of 360,000 active. MC4R-expressing cells, MTII-stimulated cAMP, LANCE TR-FRET. inhibition, % at 6.5 µM;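 active means inhibition above its plate's cutoff, the mean of tested wells on that plate plus 3 SD, cut at about 29% in these data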;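 further: 0% = Melanotan II alone and 100% = Melanotan II plus saturating MCL0020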
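Test system: U2OS cells stably expressing human melanocortin 4 receptor (MC4R); also added: Melanotan II challenge; compound: 6.5 µM single dose; timing: 30-min compound preincubation, 1-h Melanotan II challenge, 1-h detection, room temperature; signal: Eu-cAMP/anti-cAMP TR-FRET, emission 671 nm; repeats: one well per compound, no replicates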
ARFGAP1 inh – inhibitors of rat ARFGAP1 | Q62848 | Arfgap1-stimulated ARF1 GTP hydrolysis, GDP FP detection | inhibition, % at 16.5 µM | 0.26% of 360,000 active | AID 651572;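 active means inhibition above a per-plate limit, mean inhibition of low control wells plus 3 SD, cut at about 25% in these data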;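 further: 0% = DMSO wells with enzyme and 100% = wells lacking Arfgap1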
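System: truncated rat Arfgap1 GAP domain / Medium: HEPES-based buffer, pH 7.5 / Also added: N-terminally truncated human ARF1-GTP substrate / Incubation: enzyme reaction 120 min at 25 °C after 20 min preincubation / Measured by: FP of antibody-bound GDP Alexa 633 tracer, ex 620/em 688 nm / Replicates: singlicate, each compound tested once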
Numbers without * were called inactive.

For C[C@@H]1CCCCO[C@H](CN(C)C(=O)Nc2cccc3ccccc23)[C@H](C)CN([C@@H](C)CO)C(=O)c2cc(NC(=O)Cc3ccccc3)ccc2O1 the results were Yeast UUG start 1.0.
`CCCCCCSC1=C(C#N)C(c2ccccc2)CC(=O)N1` (centres undefined) gave ASAP1 GAP inh -1.6, MC4R barr agon 10.3*, CendR NRP1 mod 5.2, MC4R antag cAMP 7.1 and ARFGAP1 inh 1.6.
For COc1cccc(OCCn2c(C)c(/C=N/n3cnnc3)c3ccccc32)c1 the results were ASAP1 GAP inh 14.6, MC4R barr agon 9.7*, CendR NRP1 mod 6.0, Yeast UUG start -13.1, MC4R antag cAMP -3.5 and ARFGAP1 inh 9.6.
Screening COc1ccc(OCCn2c(C)c(/C=N/n3cnnc3)c3ccccc32)cc1 returned MC4R barr agon -1.2, CendR NRP1 mod -0.1, Yeast UUG start -17.2 and MC4R antag cAMP -5.2.
COc1ccc(CN(C)C[C@H]2Oc3ccc(NS(C)(=O)=O)cc3CC(=O)N([C@@H](C)CO)C[C@H]2C)cc1 was read as Yeast UUG start -3.8.
O=C(NNC(=O)c1cccc2ccccc12)c1ccc(Cl)c(Cl)c1 was read as ASAP1 GAP inh -0.8, MC4R barr agon 0.4, CendR NRP1 mod -18.3, Yeast UUG start -17.4, MC4R antag cAMP 9.4 and ARFGAP1 inh 11.1.
For O=C(NNC(=O)c1ccc2ccccc2c1)c1ccc(Cl)c(Cl)c1 the results were ASAP1 GAP inh -8.7, MC4R barr agon 0.4, CendR NRP1 mod 25.6*, Yeast UUG start -7.5, MC4R antag cAMP 2.9 and ARFGAP1 inh -15.8.
For CCCC(=O)Nc1ccc2c(c1)OC[C@H](C)N(C(=O)C1CCCC1)C[C@H](C)[C@H](OC)CN(C)C2=O the results were Yeast UUG start 6.1.
`COc1ccc(CC(=O)OCc2cc3ccc(C)cc3[nH]c2=O)cc1` gave ASAP1 GAP inh 1.2, MC4R barr agon 5.0, CendR NRP1 mod -0.1, Yeast UUG start -38.0, MC4R antag cAMP 3.7 and ARFGAP1 inh -12.9.
Screening COc1ccc(CC(=O)OCc2cc3ccccc3[nH]c2=O)cc1 returned ASAP1 GAP inh 3.9, MC4R barr agon -0.1, CendR NRP1 mod 25.4*, Yeast UUG start 1.9, MC4R antag cAMP 3.3 and ARFGAP1 inh -4.6.
For COc1ccc([C@H](OC)[C@@]2(Cc3ccc(O)cc3)N=C(N)N(C)C2=O)cc1 the results were ASAP1 GAP inh 15.5, MC4R barr agon 0.2, CendR NRP1 mod 21.2*, Yeast UUG start -6.1, MC4R antag cAMP 7.8 and ARFGAP1 inh -3.1.
Screening COc1ccc(C(=O)OCCc2ccc(O)cc2)cc1 returned ASAP1 GAP inh -12.6, MC4R barr agon 0.3, CendR NRP1 mod 8.6, Yeast UUG start -29.3, MC4R antag cAMP 8.8 and ARFGAP1 inh -1.7.
For COCc1nnc(NC(=O)c2c(-c3c(Cl)cccc3Cl)noc2C)s1 the results were ASAP1 GAP inh 4.7, MC4R barr agon -2.1, CendR NRP1 mod 20.0*, Yeast UUG start -11.9, MC4R antag cAMP 10.8 and ARFGAP1 inh 1.3.
`Cc1onc(-c2ccccc2Cl)c1C(=O)Nc1nnc(Cc2ccc(Cl)cc2)s1` gave ASAP1 GAP inh 10.0, MC4R barr agon -1.0, CendR NRP1 mod 15.2, Yeast UUG start -12.1, MC4R antag cAMP 9.2 and ARFGAP1 inh 1.3.
`CN(C)c1ccc(CC(=O)N2CCCC(c3cc(C(=O)Nc4ccccc4)no3)C2)cc1` (centres undefined) gave ASAP1 GAP inh 10.6, MC4R barr agon -1.0, CendR NRP1 mod 4.3, Yeast UUG start -10.1, MC4R antag cAMP -6.2 and ARFGAP1 inh -3.0.
`CCCC(=O)N1CCCC(c2cc(C(=O)Nc3ccc4c(c3)OCO4)no2)C1` (centres undefined) gave ASAP1 GAP inh -2.5, MC4R barr agon -1.2, CendR NRP1 mod -0.2, Yeast UUG start -7.5, MC4R antag cAMP -5.4 and ARFGAP1 inh 1.5.
`CN(C)c1ccc(CC(=O)N2CCCC(c3cc(C(=O)Nc4ccc5c(c4)OCO5)no3)C2)cc1` (centres undefined) gave ASAP1 GAP inh 0.1, MC4R barr agon -1.6, CendR NRP1 mod 33.1*, Yeast UUG start 7.9, MC4R antag cAMP 3.7 and ARFGAP1 inh -0.5.
For CC(C)c1ccc(C(=O)N2CCCC(c3cc(C(=O)Nc4ccc5c(c4)OCO5)no3)C2)cc1 (centres undefined) the results were ASAP1 GAP inh -4.9, MC4R barr agon 0.5, CendR NRP1 mod 22.4*, Yeast UUG start -14.4, MC4R antag cAMP 3.1 and ARFGAP1 inh 10.9.
For O=C(COC(=O)c1n[nH]c2ccccc12)Nc1ccc(Cl)cc1[N+](=O)[O-] the results were ASAP1 GAP inh 13.1, MC4R barr agon 9.1*, CendR NRP1 mod 16.5, MC4R antag cAMP -9.7 and ARFGAP1 inh 12.0.
For COc1cc2c(cc1OC)C(=O)C(c1ccc3c(c1)OCO3)CC2 (centres undefined) the results were ASAP1 GAP inh 2.0, MC4R barr agon 1.4, CendR NRP1 mod 2.9, Yeast UUG start -27.6, MC4R antag cAMP 7.7 and ARFGAP1 inh -12.8.
`COc1cc2c(cc1OC)C(=O)C(Br)CC2` (centres undefined) gave MC4R barr agon -1.6, CendR NRP1 mod 25.5*, Yeast UUG start -14.3 and MC4R antag cAMP -13.2.
`CC1=NN(c2ccccc2)C(=O)/C1=C/c1ccc(Cl)cc1` gave ASAP1 GAP inh -9.7, MC4R barr agon -1.0, CendR NRP1 mod 2.7, Yeast UUG start 0.7, MC4R antag cAMP 0.1 and ARFGAP1 inh 27.7*.
CCNC(=O)C[C@@H]1C=C[C@H](NC(=O)C2CCOCC2)[C@@H](CO)O1 was read as Yeast UUG start -8.2.
`CCCNC(=O)Nc1ccc2c(c1)C(=O)N(C)[C@H]1CC[C@@H](CC(=O)NCCCN(C)C)O[C@H]1CO2` gave Yeast UUG start -12.2.
Screening CN1CCN(C(=O)/C=C/c2cccc(Cl)c2)CC1 returned ASAP1 GAP inh 0.8, MC4R barr agon -2.4, CendR NRP1 mod 25.4*, Yeast UUG start -7.8, MC4R antag cAMP 3.2 and ARFGAP1 inh 2.8.
CNC[C@@H]1Oc2c(NC(=O)c3ccncc3)cccc2C(=O)N([C@@H](C)CO)C[C@@H]1C was read as Yeast UUG start 2.8.
For CC(C)NC(=O)N(C)C[C@@H]1Oc2cc(C#Cc3ccc(F)cc3)ccc2S(=O)(=O)N([C@@H](C)CO)C[C@H]1C the results were Yeast UUG start 11.7.

Compounds shown so far that have an NH in an aromatic ring (three):
`COc1ccc(CC(=O)OCc2cc3ccc(C)cc3[nH]c2=O)cc1` gave ASAP1 GAP inh 1.2, MC4R barr agon 5.0, CendR NRP1 mod -0.1, Yeast UUG start -38.0, MC4R antag cAMP 3.7 and ARFGAP1 inh -12.9.
Screening COc1ccc(CC(=O)OCc2cc3ccccc3[nH]c2=O)cc1 returned ASAP1 GAP inh 3.9, MC4R barr agon -0.1, CendR NRP1 mod 25.4*, Yeast UUG start 1.9, MC4R antag cAMP 3.3 and ARFGAP1 inh -4.6.
For O=C(COC(=O)c1n[nH]c2ccccc12)Nc1ccc(Cl)cc1[N+](=O)[O-] the results were ASAP1 GAP inh 13.1, MC4R barr agon 9.1*, CendR NRP1 mod 16.5, MC4R antag cAMP -9.7 and ARFGAP1 inh 12.0.
